Measurements published in patent publication US8026218B2, “Bifunctional analgesic compounds for opioid receptor agonists and neurokinin-1 receptor antagonists” (The University of Arizona, priority 2006, dated 2011).

Amino acid sequences for entries named in this document (tags omitted).
UniProt P33535, whole entry: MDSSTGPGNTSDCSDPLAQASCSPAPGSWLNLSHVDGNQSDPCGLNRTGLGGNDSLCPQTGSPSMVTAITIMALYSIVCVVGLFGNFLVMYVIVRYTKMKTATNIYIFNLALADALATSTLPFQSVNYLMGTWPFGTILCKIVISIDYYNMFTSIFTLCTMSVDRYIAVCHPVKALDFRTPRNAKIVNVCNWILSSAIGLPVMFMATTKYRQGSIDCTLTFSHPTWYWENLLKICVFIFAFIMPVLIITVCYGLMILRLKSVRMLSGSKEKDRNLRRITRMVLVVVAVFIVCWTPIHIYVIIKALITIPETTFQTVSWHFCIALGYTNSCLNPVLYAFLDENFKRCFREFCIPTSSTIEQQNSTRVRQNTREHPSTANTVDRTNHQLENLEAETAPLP
UniProt P14600, whole entry: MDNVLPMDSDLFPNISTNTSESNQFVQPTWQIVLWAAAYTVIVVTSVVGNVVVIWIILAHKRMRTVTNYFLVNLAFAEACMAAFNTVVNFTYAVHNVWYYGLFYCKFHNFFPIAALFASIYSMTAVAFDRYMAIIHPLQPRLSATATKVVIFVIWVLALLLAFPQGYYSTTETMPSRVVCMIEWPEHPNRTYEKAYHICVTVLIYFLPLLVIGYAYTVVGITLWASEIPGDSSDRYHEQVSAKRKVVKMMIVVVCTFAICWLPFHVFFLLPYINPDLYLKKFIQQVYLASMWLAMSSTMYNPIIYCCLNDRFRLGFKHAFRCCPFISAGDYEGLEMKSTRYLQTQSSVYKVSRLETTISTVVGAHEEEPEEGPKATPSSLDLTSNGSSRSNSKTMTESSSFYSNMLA

Legend:
[1] = biological target: T1, rat μ opioid receptors (rMOR) (Rattus norvegicus, UniProt P33535); test: Radioligand competition binding, [3H]DAMGO, rMOR membranes
T1 construct: expressed in transfected cells; host or cells: HN9.10 neuroblastoma cell line, pCDNA3, neomycin-selected clones

rat NK1 (rNK1) receptor = biological target: T2, rat NK1 (rNK1) receptor (Rattus norvegicus, UniProt P14600); test: Radioligand competition binding, [3H]substance P, rNK1/CHO membranes; conditions: Affinity rNK1 (Ki; nM), Table 39
T2 construct: expressed in transfected cells; host or cells: CHO (rNK-1/CHO cell line from Dr. James Krause)

| Structure (SMILES) | IC50 [1] | Ki (rat NK1 (rNK1) receptor) |
| --- | --- | --- |
| CC(C)C[C@H](NC(=O)[C@@H]1CCCN1C(=O)[C@H](Cc1ccccc1)NC(=O)CNC(=O)[C@@H](C)NC(=O)[C@@H](N)Cc1ccc(O)cc1)C(=O)N[C@@H](Cc1c[nH]c2ccccc12)C(=O)NCc1ccccc1 [TY008, H-Tyr-DAla-Gly-Phe-Pro-Leu-Trp-NH-Bzl] | 1.26 nM |  |
| CCCC[C@H](NC(=O)[C@H](Cc1ccccc1)NC(=O)CNC(=O)[C@@H](C)NC(=O)[C@@H](N)Cc1ccc(O)cc1)C(=O)N[C@@H](COC1O[C@H](CO)[C@@H](O)[C@H](O)[C@H]1O)C(=O)N[C@@H](CC(C)C)C(=O)N[C@@H](Cc1c[nH]c2ccccc12)C(=O)NCc1cc(C(F)(F)F)cc(C(F)(F)F)c1 (some centres unmarked) [TY044] |  | 23.5 nM |
